Laboratory results: ChEMBL document CHEMBL1128924, “Some benzenesulfonamido-substituted valerophenones that are selective antagonists for the 5-HT2C receptor” (Bioorg Med Chem Lett, 1996)
pKi: −log10 of the molar value.

Amino acid sequences for entries named in this document (tags omitted). A change or cut given only in a name is not applied to a line headed by its entry.
UniProt P28335: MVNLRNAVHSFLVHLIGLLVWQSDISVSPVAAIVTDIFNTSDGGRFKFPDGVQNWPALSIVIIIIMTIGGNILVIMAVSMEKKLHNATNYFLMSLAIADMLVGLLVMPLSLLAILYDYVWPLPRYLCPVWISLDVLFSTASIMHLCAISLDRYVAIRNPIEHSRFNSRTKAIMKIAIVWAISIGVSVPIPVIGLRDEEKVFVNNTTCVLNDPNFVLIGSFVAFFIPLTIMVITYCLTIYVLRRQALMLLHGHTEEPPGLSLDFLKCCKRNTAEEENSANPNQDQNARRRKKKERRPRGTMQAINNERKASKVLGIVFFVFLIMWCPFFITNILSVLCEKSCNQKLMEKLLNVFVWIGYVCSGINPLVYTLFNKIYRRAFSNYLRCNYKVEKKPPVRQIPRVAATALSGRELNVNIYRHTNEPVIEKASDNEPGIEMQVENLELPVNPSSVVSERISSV

Molecular target: 5-hydroxytryptamine receptor 2C (Homo sapiens, UniProt P28335)
Experiment: Displacement of [3H]mesulergine from human cloned 5-hydroxytryptamine 2C receptor expressed in CHO-K1 cells
Format: cell-based

CN1C[C@@H](NS(=O)(=O)N(C)C)C[C@@H]2c3cccc4c3c(cn4C)C[C@H]21 [MESULERGINE]
pKi: 8.70
